Earlier results as cited in US20120302748A1, “TREATMENT OR PROPHYLAXIS OF PROLIFERATIVE CONDITIONS” (THE UNIVERSITY COURT OF THE UNIVERSITY OF DUNDEE, priority 2009, published 2012).

Target: T1, CYP1B1 (Homo sapiens, UniProt Q16678)
T1 sequence (Q16678 1-543): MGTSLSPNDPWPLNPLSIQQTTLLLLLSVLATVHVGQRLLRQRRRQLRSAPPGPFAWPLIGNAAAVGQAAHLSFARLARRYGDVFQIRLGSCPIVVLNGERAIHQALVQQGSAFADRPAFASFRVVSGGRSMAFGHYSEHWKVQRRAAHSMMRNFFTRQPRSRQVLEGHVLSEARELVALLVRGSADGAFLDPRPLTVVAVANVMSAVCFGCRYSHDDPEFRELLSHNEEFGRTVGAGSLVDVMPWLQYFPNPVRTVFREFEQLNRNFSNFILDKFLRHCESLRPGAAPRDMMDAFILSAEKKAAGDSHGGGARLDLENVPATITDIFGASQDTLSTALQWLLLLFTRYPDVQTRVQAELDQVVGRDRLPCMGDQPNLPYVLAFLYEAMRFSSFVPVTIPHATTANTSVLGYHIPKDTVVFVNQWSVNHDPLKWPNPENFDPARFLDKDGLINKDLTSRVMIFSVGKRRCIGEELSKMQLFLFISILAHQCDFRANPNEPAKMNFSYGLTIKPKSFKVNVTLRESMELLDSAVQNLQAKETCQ
Settings: cited from earlier work

tetramethoxystilbene
IC50: 6 nM
